In PubChem BioAssay AID463079 (The Scripps Research Institute Molecular Screening Center, 2010):
The list shows a part of the results, in another mix than the full data. Activity calls are given as the source filed them.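 How the source made its calls: active means inhibition above that plate's mean sample inhibition plus 3 SD (cut at about 26% in these data); inactive means the rest.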

Test: nonselective Gq signaling inhibition in CHO cells – cell-based, fluorescence, Fluo-8 calcium dye, counter-screen for OX1R antagonist project, primary screen (AID 463079);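 further: 0% = ATP-challenged DMSO wells and 100% = DMSO wells without ATP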
Conditions: parental CHO-K1, ATP-induced calcium, Fluo-8 fluorescence; at 5.6 µM; hits give high values
Summary of the method: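 Material: parental CHO cells / Compound: single nominal dose of 5.6 µM per compound / Signal: Fluo-8 fluorescence / Replicates: singlicate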

| SMILES | inhibition |
| --- | --- |
| CN(C(=O)Cc1ccc(Cl)c(Cl)c1)[C@@H]1CCCC[C@H]1N1CCCC1 | inactive: -10.6% |
| CC(C)/C=N\N=C(\N)N[N+](=O)[O-] | inactive: 9.11% |
| O=[As](O)(c1ccccc1Br)c1ccccc1Br | inactive: -10.6% |
| CC1(CBr)Cn2c(nc3ccccc3c2=O)S1 (configuration not stated) | inactive: -8.59% |
| COc1ccccc1CNC(=O)COC(=O)C(O)(c1ccccc1)c1ccccc1 | inactive: -7.76% |
| Clc1n[nH]nc1-c1nn[nH][15n]1 | inactive: -9.24% |
| CC(C)(C)C(=O)NC(Sc1ncccn1)C(Cl)(Cl)Cl (configuration not stated) | inactive: -18.6% |
| CCC1=CC2Cc3nc4ccc(Cl)cc4c(N)c3C(C1)C2 (configuration not stated) | inactive: -16.2% |
| O=P1(Nc2ccccn2)COc2ccccc2OC1 | inactive: 10.3% |
| CCOP(=O)(NC(=NC(C)c1ccccc1)NC(C)c1ccccc1)OCC (configuration not stated) | inactive: -14.2% |
| CCOP(=O)(Nc1ccc(C)cn1)OCC | inactive: -3.18% |
| CN(CCCl)Cc1cc(Cl)c(NC2=NCCN2)c(Cl)c1 | inactive: 0.4% |
| Nc1cccc([As](=O)(O)c2ccccc2)c1 | inactive: 3.96% |
| O=[As](O)(c1cccs1)c1cccs1 | inactive: -3.14% |
| Cc1ccc(OCC(=O)OC2CN3CCC2CC3)cc1 (configuration not stated) | inactive: -3.53% |
| NS(=O)(=O)c1cccc(NC(=O)COC(=O)C(O)(c2ccccc2)c2ccccc2)c1 | inactive: -14.3% |
| O=P1(Nc2ccc(Br)cn2)COc2ccccc2OC1 | inactive: -3.48% |
| O=P1(Nc2ncccn2)COc2ccccc2OC1 | inactive: 1.3% |
| CN(C)C1(CNC(=O)c2ccc(S(C)(=O)=O)cc2)CCCCC1 | inactive: 12.1% |
| O=C(/C=C/c1ccccc1)OC1CN2CCC1CC2 (configuration not stated) | inactive: -10.8% |
| Cc1nn(-c2ccccc2)c2c1P(=O)(N1CCOCC1)N(C)C(c1ccccc1)=N2 (configuration not stated) | inactive: -7.34% |
| Cc1ccc(C(=O)OC2CN3CCC2CC3)cc1 (configuration not stated) | inactive: -8.17% |
| CC1CCC(C(C)C)C(OP(=O)(Nc2ccccn2)c2ccccc2)C1 (configuration not stated) | inactive: -22.3% |
| N#CCCN(C(=O)COC(=O)C(O)(c1ccccc1)c1ccccc1)c1ccc(F)cc1 | inactive: -23% |

| SMILES | inhibition |
| --- | --- |
| CCOP1(=S)c2c(C)nn(CCC#N)c2N=C(c2ccc(F)cc2)N1C (configuration not stated) | inactive: -13% |
| CN(C(=O)Cc1ccccc1)[C@@H]1CC[C@]2(CCCO2)C[C@H]1N1CCCC1 | inactive: -20.2% |
| O=[N+]([O-])c1ccc2c(c1)nnn2O | inactive: -9.67% |
| CN(C)C(=O)c1cc([N+](=O)[O-])cc2c1-c1c(cc([N+](=O)[O-])cc1[N+](=O)[O-])C2=O | inactive: 7.8% |
| CN(C(=O)Cc1ccc(Cl)c(Cl)c1)[C@H]1CC[C@@]2(CCCO2)C[C@@H]1N1CCCC1 | inactive: -20.3% |
| NC(=O)Nc1ccc([As](=O)(O)O)cc1 | inactive: -10% |
| O=C(O)COc1ccc([As](=O)(O)O)cc1[N+](=O)[O-] | inactive: -7.69% |
| Nc1ccccc1[As](=O)(O)c1ccccc1 | inactive: 8.69% |
| CCOP1(=S)c2c(C)nn(CCC#N)c2N=C(c2ccccc2F)N1C (configuration not stated) | inactive: -4.08% |
| O=P(Nc1nccs1)(Oc1ccccc1)Oc1ccccc1 | inactive: -16.3% |
| O=P(Nc1nccs1)(c1ccccc1)c1nc2ccccc2s1 (configuration not stated) | inactive: 13.3% |
| CS(=O)(=O)c1cc([N+](=O)[O-])c2no[n+]([O-])c2c1 | inactive: -11.6% |
| COc1cc(C2NCCC3(OCCO3)C2(C)C)cc(OC)c1OC (configuration not stated) | inactive: -21.7% |
| CCOP(=O)(Nc1cccc2ccccc12)OCC | inactive: -9.73% |
| Nc1cccc2c([As](=O)(O)O)cccc12 | inactive: 7.4% |
| Cc1ccc(NCCc2c([N+](=O)[O-])cc([N+](=O)[O-])cc2[N+](=O)[O-])cc1 | inactive: -20.4% |
| CCCOP(=S)(Nc1nc(N)cc(=O)[nH]1)OCCC | inactive: -15.6% |
| Cc1cccc(OCC(=O)OC2CN3CCC2CC3)c1 (configuration not stated) | inactive: -15.9% |
| O=[As](O)(c1cccc(O)c1)c1cccc(O)c1 | inactive: 4.55% |
| O=C(OC1CN2CCC1CC2)c1ccc(Cl)cc1 (configuration not stated) | inactive: -13.8% |
| O=[As](O)(O)c1cccnc1 | inactive: -11.8% |
| COc1cc(C(=O)NCC2(N3CCOCC3)CCCCC2)cc(Cl)c1OC(C)C | inactive: -22.2% |
| CS(=O)(=O)c1ccc(Cl)c(NC(=O)COC(=O)C(O)(c2ccccc2)c2ccccc2)c1 | inactive: -15.9% |
